# Measured affinities in a library of Ab-91 heavy chain variants

The measurements come from Engelhart et al. 2022 (doi:10.1038/s41597-022-01779-4) through the FLAb antibody collection.

Target peptide (SARS-CoV-2 spike, HR2 region): PDVDLGDISGINAS

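Phage display of a naive human antibody library on the peptide gave the parent. Variants in AAYL51 differ from the parent at up to three CDR positions; double and triple changes were sampled at random. The assay is AlphaSeq: two haploid yeast populations carry antibody and antigen on their surface. Pairs that bind mate more often; barcode pairs of the diploids are counted by sequencing. Each replicate has its own calibration line, from reference interactions of the BCL2 family. Each pool was mated in three replicate cultures.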

Each scFv is VL, the linker GGGGSGGGGSGGGGS, VH, as in the parent Ab-91, and differs from it in the CDRs of the heavy chain only.
VL: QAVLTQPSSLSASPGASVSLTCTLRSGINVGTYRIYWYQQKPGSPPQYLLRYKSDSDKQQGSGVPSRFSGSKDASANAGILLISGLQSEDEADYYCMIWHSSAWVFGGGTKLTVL
VH: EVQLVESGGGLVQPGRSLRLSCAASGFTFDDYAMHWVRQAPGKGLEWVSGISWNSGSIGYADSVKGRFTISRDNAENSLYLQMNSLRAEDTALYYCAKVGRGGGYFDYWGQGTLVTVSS

Changes read parent residue, position, new residue, counted from the first residue of the VH shown. Scale: log10 of Kd in nM, estimated from mating counts; low values are strong binders. A mean of the replicates is given; it leaves out those without a signal. "nd" marks a missing value. The strain was present, yet no cells mated with the target were sequenced in that replicate, which points to weak or no binding. Parent in this assay: reference entry 1.86, copy in this library 0.88. Three control strains display no target. For library AAYL51, 21% of the pairings with them gave a signal, with a median of 4.54 and one signal in twenty below 3.26, so weak values seen in few replicates may be background. For each scFv, signals with the empty controls are counted beside the result.

V64G K65A G100P: nd, 3.35, nd (controls 0 of 9).
I58G G59I V64R: nd, nd, nd (controls 2 of 9).
V64Q Y108Q: 4.07, 4.01, nd (mean 4.04; controls 4 of 9).
W53Q S57N: 3.14, nd, nd (controls 1 of 9).
F29T D30R D31I: 3.50, nd, nd (controls 0 of 9).
Y32A M34L I51G: nd, nd, nd (controls 0 of 9).
D30Q H35N G59L: nd, 4.61, nd (controls 3 of 9).
S63D V99T: 3.29, 3.69, 3.05 (mean 3.34; controls 5 of 9).
S52D G59I G102I: 4.92, 6.38, nd (mean 5.65; controls 5 of 9).
Y60C K65T G103M: 5.50, nd, 4.92 (mean 5.21; controls 5 of 9).
G50I I58P D62I: nd, 3.97, nd (controls 4 of 9).
D30E D62Q Y108A: 1.42, 1.30, 0.88 (mean 1.20; controls 6 of 9).
T28S N54M S55Q: 2.05, 2.31, nd (mean 2.18; controls 1 of 9).
F29E I51V G56S: nd, 4.13, nd (controls 1 of 9).
D30R R101S G104T: nd, nd, nd (controls 1 of 9).
N54I S63Q R101K: nd, nd, nd (controls 0 of 9).
M34V R101T Y105S: 4.35, 4.50, nd (mean 4.43; controls 8 of 9).
G26N: nd, nd, nd (controls 1 of 9).
H35K D62K G104P: nd, 3.94, nd (controls 1 of 9).
F27M D30Q Y108Q: nd, nd, nd (controls 0 of 9).
F27E W53S G59R: nd, 4.66, nd (controls 0 of 9).
Y32F G59L Y105W: 3.77, 6.35, nd (mean 5.06; controls 3 of 9).
S55G I58V D107A: nd, nd, nd (controls 2 of 9).
S63D G104Q: nd, nd, nd (controls 0 of 9).
D31A G104Y: 5.00, 4.71, nd (mean 4.86; controls 4 of 9).
S52L Y60P V64R: nd, nd, nd (controls 1 of 9).
K65Y V99M: nd, nd, nd (controls 0 of 9).
G59R A61N R101A: 5.57, 5.56, nd (mean 5.57; controls 6 of 9).
G59Q S63W G103C: nd, nd, nd (controls 0 of 9).
N54K S55Q S57A: nd, nd, nd (controls 0 of 9).
R101L G102T G104P: 4.50, nd, nd (controls 1 of 9).
H35N G102H Y108L: 3.85, nd, 3.55 (mean 3.70; controls 2 of 9).
F29S S52G F106W: 3.78, nd, 5.12 (mean 4.45; controls 2 of 9).
T28Q S55M Y105V: 2.93, 3.35, 3.27 (mean 3.18; controls 0 of 9).
G26K Y32N G100R: nd, nd, 3.30 (controls 0 of 9).
A61D V64W G102Y: nd, 4.36, 5.86 (mean 5.11; controls 5 of 9).
G26N D30G G50E: nd, nd, nd (controls 1 of 9).
Y60Q S63F G103W: 4.08, nd, nd (controls 4 of 9).
D31E S63Q Y108C: 0.84, 0.84, 0.15 (mean 0.61; controls 9 of 9).
M34C S52M W53H: 4.50, nd, nd (controls 2 of 9).
F27A D30H A61R: nd, 4.68, 4.06 (mean 4.37; controls 3 of 9).

Extract of 3 entries:

| changes | replicates, log10 nM | mean, log10 nM | signal with controls |
|---|---|---|---|
| Y60Q S63F G103W | 4.08, nd, nd | 4.08 | 4 of 9 |
| D31A G104Y | 5.00, 4.71, nd | 4.86 | 4 of 9 |
| N54K S55Q S57A | nd, nd, nd | nd | 0 of 9 |